Measured affinities in a library of Ab-91 heavy chain variants

Target peptide (SARS-CoV-2 spike, HR2 region): PDVDLGDISGINAS

The variants keep the light chain, the linker and the frameworks of Ab-91 (scFv order VL, the linker GGGGSGGGGSGGGGS, VH).
VL: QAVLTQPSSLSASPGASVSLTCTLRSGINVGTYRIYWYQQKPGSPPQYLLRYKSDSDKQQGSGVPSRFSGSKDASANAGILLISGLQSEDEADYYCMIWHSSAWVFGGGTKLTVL
VH: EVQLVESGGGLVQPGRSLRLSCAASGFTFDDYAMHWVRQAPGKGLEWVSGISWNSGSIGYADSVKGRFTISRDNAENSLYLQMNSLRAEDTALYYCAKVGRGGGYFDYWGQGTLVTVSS

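The parent was found by panning a naive human phage display library on the peptide. In library AAYL51, one, two or three CDR residues were substituted; doubles and triples were drawn at random. AlphaSeq pools MATa yeast showing the antibodies with MATalpha yeast showing the peptide. Binding brings cells together so that they mate, and sequencing counts the barcode pairs among the diploids. Each replicate has its own calibration line, from reference interactions of the BCL2 family. There are three technical replicates.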

The parent's heavy chain CDRs are GFTFDDYAMH, GISWNSGSIGYADSVK, VGRGGGYFDY; each variant's own CDRs replace them letter for letter. All variants listed here change R101 of the VH, counted from its first residue. The Kd shown is the geometric mean over detected replicates; a lower Kd is a better binder. Where no diploid with the target was found in any replicate, the entry reads "nd": below detection, most likely a poor binder, though not proof of it. Three control strains display no target. For library AAYL51, 21% of the pairings with them gave a signal, with a median of 34 µM and one signal in twenty below 1.8 µM, so weak values seen in few replicates may be background. Parent in this assay: reference entry 72 nM, copy in this library 7.5 nM.

| CDR-H1 | CDR-H2 | CDR-H3 | apparent Kd | seen in |
|---|---|---|---|---|
| GFTFDDYLMH | GSSWNSGSIGYADSVK | VGMGGGYFDY | 71 µM | 1 of 3 |
| GFTFDDYCMH | GISWNSGSIGYADSVK | VGQCGGYFDY | nd | 0 of 3 |
| GFTADDYAMH | GISWNSGSIGYADSVK | VGEGGAYFDY | nd | 0 of 3 |
| GFPFDDYAMH | GISWNSGSIGYADSVK | VGLGGGYFDY | 670 µM | 1 of 3 |
| GFTVDDYAMT | GISWNSGSIGYADSVK | VGLGGGYFDY | nd | 0 of 3 |
| GFTFDDAAMH | GISWNSGSIGYADSVK | VGKGGGYFDD | 6.1 µM | 2 of 3 |
| GFTFDDYAMH | GISWNSGSIGYADSVK | VGDWGGYFDY | 520 µM | 1 of 3 |
| GFDFDDYAMH | GISWNSGSIGYYDSVK | VGIGGGYFDY | 5.1 µM | 1 of 3 |
| GFTFDDYAMH | GISWNNGSIGYADSVK | MGAGGGYFDY | nd | 0 of 3 |
| GFTFDDYAMH | GISWNSGSIGYALSVK | VGVGGGYDDY | 98 µM | 3 of 3 |
| GFTFDDYAMH | GISANSGSIGYAKSVK | VGMGGGYFDY | nd | 0 of 3 |
| GFTFDDYAMW | GFSWNSGSIGYADSVK | VGGGGGYFDY | 1.7 µM | 1 of 3 |
| GVMFDDYAMH | GISWNSGSIGYADSVK | VGPGGGYFDY | 730 nM | 3 of 3 |
| GFKFDDYAMH | GISWNSGSIGYADSVK | VGPGGGFFDY | 16 nM | 3 of 3 |
| GFTFDEYAMH | GISWNSGSIGYADTVK | VGSGGGYFDY | nd | 0 of 3 |
| GFTFDDYAMH | GISWNSGSIMYADSVK | VGMGGGYFWY | 31 µM | 1 of 3 |
| CFTFDDYAMH | GISWNSGSIGYTDSVK | VGGGGGYFDY | 6.5 µM | 1 of 3 |
| GFTFDDYAMH | GISWNSGSIGYADSVK | VGVGVGYFCY | 6.7 µM | 2 of 3 |
| MFTFDDYAMH | GISWNSGSIGYADSTK | VGFGGGYFDY | 860 µM | 2 of 3 |
| GFTFDPYAMH | GISWNSGSIGYADSSK | VGVGGGYFDY | nd | 0 of 3 |
| GFTFDDYAMH | CISWNSGSIGYADSVK | WGKGGGYFDY | nd | 0 of 3 |
| GFTADDYAMH | GISWNSLSIGYADSVK | VGAGGGYFDY | 11 µM | 3 of 3 |
| GFTFDDYAMH | GISWNSGSIGHADSVK | VGNGEGYFDY | 1.3 µM | 1 of 3 |
| GFTFDDYRMH | GISWNSGSIGYADSVK | VGFGGGYFDY | 14 µM | 2 of 3 |
| GFTFDDYAMH | GISWNSGSIGYADCVK | VGEGGAYFDY | 8.5 µM | 1 of 3 |
| GFTFDDYAMV | GISWNSGSIGYADSVV | VGKGGGYFDY | nd | 0 of 3 |
| GFTFADYAMH | GISWNSGSIGYADSVK | VGTGGGYFDY | 32 nM | 3 of 3 |
| GFTFDDYAMH | GISWNSGSIGTADSVK | VGPGGGYFDY | 99 nM | 3 of 3 |
| GFTFDDYAHH | GISWNSVSIGYADSVK | VGAGGGYFDY | 40 µM | 2 of 3 |
| GFTFDDYAMH | GISWNSGSIGYAHSVK | VMIGGGYFDY | 14 µM | 1 of 3 |
| GFTFDDYAMH | GISWNVGSPGYADSVK | VGKGGGYFDY | nd | 0 of 3 |
| GFTNDDYAMH | GISWNSGSIGYADSVK | VGWGGGWFDY | 92 µM | 2 of 3 |
| GFGFDDYAMH | GIYWNSGSIGYADSVK | VGLGGGYFDY | 15 µM | 2 of 3 |
| GFTHDDYAMH | GISWNSYSIGYADSVK | VGSGGGYFDY | 30 µM | 3 of 3 |
| GFTFDDYAMH | GISWNSGSIGYADSVT | VGMGGGYFDP | 40 µM | 2 of 3 |
| GFTFDDYLMH | GISWNSGSIGYADSVK | VGNGGGYWDY | nd | 0 of 3 |
| GFTFDDYAMD | GISWNSGSIGYADSKK | VGIGGGYFDY | nd | 0 of 3 |
| GFTFDDSAMH | GITWNSGSIGYADSVK | VGMGGGYFDY | nd | 0 of 3 |
| GFTFDDNAMH | GISWNSGSIGYADSVK | VGCGMGYFDY | 6.0 nM | 3 of 3 |
| GFTFDDYAMH | GISINSGSIGYADSVK | VGQMGGYFDY | 3.0 mM | 1 of 3 |
| GFTFIDYAMH | LISWNSGSIGYADSVK | VGHGGGYFDY | 220 µM | 1 of 3 |
| GFTFDDYAMH | GISWNSGSIGYADSVK | VGKQGGYFDQ | 230 nM | 3 of 3 |
| GFTFDDYAMH | GISWNSGSTGYADSVK | VGSGGGYFDY | 3.9 nM | 3 of 3 |
| GFTFDWYAMH | GISWCSGSIGYADSVK | VGWGGGYFDY | nd | 0 of 3 |
| GFTFDDYVMH | GISWNSGSPGYADSVK | VGCGGGYFDY | nd | 0 of 3 |
| GVTFDDYAGH | GISWNSGSIGYADSVK | VGCGGGYFDY | 24 µM | 1 of 3 |
| GFTTDDYAMH | GISWNSGSIGYADSVK | VGWGLGYFDY | nd | 0 of 3 |
| GFTFDDYAMH | GISWNSGSIGYACSVW | VGTGGGYFDY | 7.0 µM | 3 of 3 |
| GFTFDDYAMH | GISWNGGSIGYADSVK | VGLGHGYFDY | 15 µM | 1 of 3 |
| GFTFDDYAMH | GISWNAGSIGYADSFK | VGFGGGYFDY | 28 nM | 3 of 3 |
| GFTFDDYLMH | GISWNVGSIGYADSVK | VGFGGGYFDY | 36 µM | 3 of 3 |
| GFTFDSYAMH | HISWNSGSIGYADSVK | VGPGGGYFDY | nd | 0 of 3 |
| GFTFDDYAMH | GISWNSGPIGYADSVK | VGLGEGYFDY | nd | 0 of 3 |
| GFTFDRYAMH | GISWNSGSIGYADSDK | VGYGGGYFDY | nd | 0 of 3 |
| GFTFDDYAMH | GIIWNSGSIGYADSVK | VCGGGGYFDY | nd | 0 of 3 |
| GFTFDDYAMH | GISWNSGSIGYADSVK | YGYGGGYFDY | 290 µM | 1 of 3 |
| GFTFDDYAML | GISWNSGSIGYADSVK | VGVGGGYFDY | nd | 0 of 3 |
| GFTFDDYAMH | GISWNSGSIMYADPVK | VGQGGGYFDY | nd | 0 of 3 |

Again, the first 6 entries without any signal:

| CDR-H1 | CDR-H2 | CDR-H3 | apparent Kd | seen in |
|---|---|---|---|---|
| GFTFDDYCMH | GISWNSGSIGYADSVK | VGQCGGYFDY | nd | 0 of 3 |
| GFTADDYAMH | GISWNSGSIGYADSVK | VGEGGAYFDY | nd | 0 of 3 |
| GFTVDDYAMT | GISWNSGSIGYADSVK | VGLGGGYFDY | nd | 0 of 3 |
| GFTFDDYAMH | GISWNNGSIGYADSVK | MGAGGGYFDY | nd | 0 of 3 |
| GFTFDDYAMH | GISANSGSIGYAKSVK | VGMGGGYFDY | nd | 0 of 3 |
| GFTFDEYAMH | GISWNSGSIGYADTVK | VGSGGGYFDY | nd | 0 of 3 |

Reference: Engelhart et al. 2022, doi:10.1038/s41597-022-01779-4. File: FLAb, binding data.